Experimental data as given in patent USRE35517E, “Method, compositions, and compounds for modulating brain excitability” (priority 1992, dated 1997).

System: GABA/benzodiazepine receptor-chloride ionopore complex (GBR complex)
Test: Dissociation kinetics of [35S]TBPS in rat cerebral cortical membranes
Format: binding
Conditions: [35S]TBPS dissociation, rat cortex; Na pentobarbital, 300 nM alphaxalone, 20 nM a-OH-DHP

Compound: CC(=O)[C@H]1CC[C@H]2[C@@H]3CC[C@H]4C[C@H](O)CC[C@]4(C)[C@H]3CC[C@]12C [3α-OH-DHP, 3α-hydroxy-5α-pregnan-20-one]
- k-1, R (rapidly dissociating component): 0.122 ± 0.030 min⁻¹
